For one assay, the system named is cat PBMCs. Briefly: Glucose uptake assay in cat PBMCs. Type of assay: cell-based. The conditions noted are these: vs PBS. Here is the method:
(§1) Human Daudi cells cultured in 75 cm^2 flask were centrifuged ( 300 g, 3 minutes), resuspended in warmed PBS supplemented with 10 % goat serum and seeded in 96-well microplate ( 100 µL, 2 × 10^6 cells/mL) in order to deprive cells from glucose. Cells were treated with test treatments (10 µg/mL) for 1 hour (37° C.). Cells were then incubated with 500 µM of the fluorescent and non-metabolizable glucose analog 2-NBDG ((2R,3R,4S,5R)-3,4,5,6-tetrahydroxy-2-[(7-nitro-2,1,3-benzoxadiazol-4-yl)amino]hexanal; Thermo Fischer) for 30 minutes at 37° C., and washed 4 times with PBS containing 10 % of goat serum. Images were acquired using a Zeiss microscope (20 X) and the relative fluorescence intensity of 30 cells was determined using Fiji.
(§2) The same method used for human Daudi cells was used for dog and cat PBMCs, with 200,000 cells plated per well.

Assay [1] relates to LPS-induced type 2 diabetes (T2DM) mouse model. The assay can be described thus: LPS-induced type 2 diabetes (T2DM) mouse model. Type of assay: in vivo, mice. The conditions noted are these: s.c. daily for one week; LPS 700 µg/kg ip daily for two weeks. Here is the method: Mice (n = 5 per group) were daily injected with LPS (700 µg/kg ip) for two weeks. One week after LPS treatment initiation, mice were daily injected with SEQ ID NO: 10 (50 µg/kg s.c.) for one week.
Glycaemia was measured using a Contour XT glucometer (Ascensia Diabetes Care) and appropriate measurement strips (Contour Next). Fasting glycaemia was first measured (T0), and then glucose was administered via i.p. injection (2 g/kg). Glycaemia measurements were performed 15, 30, 90, and 120 minutes after i.p. glucose injection.
Blood samples were collected before glucose injection as well as 15 minutes after glucose injection. Sera were obtained by centrifuging blood samples at 2500 g for 20 minutes at 4° C. and frozen at -80° C. Serum insulin was measured using an ultrasensitive mouse insulin ELISA kit according to the manufacturer’s instructions (Crystal Chem).

For assay [2], the system named is folic acid-induced acute kidney injury model. Briefly: Folic acid-induced acute kidney injury (AKI) mouse model, blood urea nitrogen. Type of assay: in vivo, mice. The conditions noted are these: s.c. every day; folic acid 250 mg/kg. Here is the method: Animals were injected with PBS or folic acid (250 mg/kg dissolved in 0.3 M sodium bicarbonate). Blood samples were collected every day for 3 consecutive days. Sera were obtained by centrifuging blood samples at 2,500 g for 20 minutes at 4° C. and frozen at -80° C. BUN levels were determined using a BUN assay kit (ThermoFischer) according to manufacturer’s instructions.

In another assay the test system is DSS mouse model. Briefly: DSS-induced colitis mouse model, colon length. Type of assay: in vivo, mice. The conditions noted are these: 300 µg/kg s.c. daily from start of DSS; 3% DSS 5 days, sacrifice day 9. Here is the method: Experimental colitis was induced in mice by giving drinking water ad libitum containing 3 % (w/v) DSS for 5 days, while control mice received tap water only. Test compounds were intravenously administered (15 mg/kg) when DSS treatment began. Mice were sacrificed 9 days after the beginning of DSS treatment.
Administration of DSS causes human ulcerative colitis-like pathologies due to its toxicity to colonic epithelial cells, which results in compromised mucosal barrier function. Clinical observations similar to human pathologies, such as weight loss, diarrhea and occult blood in stool, are commonly observed in the DSS model. Moreover, diminution of the colon’s length is characteristic of this model.
Experimental colitis was induced in mice by giving drinking water ad libitum containing 3% (w/v) DSS for 5 days, while control mice received tap water only. Test compounds (SEQ ID NO: 6 and SEQ ID NO: 10) were subcutaneously administered everyday (300 µg/kg) starting when DSS treatment began. Mice were sacrificed 9 days after the beginning of DSS treatment.

For a further assay, the system named is human Daudi cells. The assay is classed as cell-based. The conditions noted are these: 1 h.
The next assay relates to dog PBMCs. Briefly: Glucose uptake assay in dog PBMCs. The conditions noted are these: vs PBS. Type of assay: cell-based. Here is the method:
as §1, §2

Another assay relates to HFD mouse model. The assay can be described thus: Short high fat diet-induced obesity (HFD) mouse model. Type of assay: in vivo, mice. The conditions noted are these: s.c. every day, high fat diet 3 days. How it is done:
Animals were exposed to normal diet (10% calories from fat) or high fat diet (60% calories from fat) for 3 days. Test compound (SEQ ID NO: 10, 300 µg/kg s.c.) was administered every day starting the day before exposure to HFD. Three days after inception of the HFD regimen, mice were fasted for 5 hours and a glucose challenge was performed.
Glycaemia was measured using a Contour XT glucometer (Ascensia Diabetes Care) and appropriate measurement strips (Contour Next). Fasting glycaemia was first measured (T0), and then glucose was administered via i.p. injection (2 g/kg). Glycaemia measurements were performed 15, 30, 90, and 120 minutes after i.p. glucose injection. Data were expressed as area under the curve (AUC).
Blood samples were collected before glucose injection as well as 15 minutes after glucose injection. Sera were obtained by centrifuging blood samples at 2,500 g for 20 minutes at 4° C. and frozen at -80° C. Serum insulin was measured using an ultrasensitive mouse insulin ELISA kit according to the manufacturer’s instructions (Crystal Chem). Data were expressed as area under the curve (AUC).

Structures are written as SMILES.

As usually defined, the EC50 is the midpoint of the concentration-response curve.

As to `CC[C@H](C)[C@@H]1NC(=O)[C@H](C(C)C)NC(=O)[C@H](Cc2ccccc2)NC(=O)[C@H](CC(N)=O)NC(=O)[C@H](CCC(N)=O)NC(=O)[C@H](CC(=O)O)NC(=O)CNC(=O)[C@@H]2CCCN2C(=O)[C@H](CC(N)=O)NC(=O)[C@H](CCCCN)NC(=O)[C@H](CCC(=O)O)NC(=O)[C@H](CCCNC(=N)N)NC(=O)[C@H](CCCCN)NC(=O)[C@H](CC(C)C)NC(=O)[C@H](CCCCN)NC(=O)[C@H](C(C)C)NC(=O)[C@H](CCSC)NC(=O)[C@@H](N)CSSC[C@@H](C(=O)O)NC(=O)[C@H](Cc2ccccc2)NC(=O)[C@H](CCC(=O)O)NC(=O)[C@H](CC(C)C)NC1=O` [SEQ ID NO: 10], the glucose uptake-increasing activity entry with cat PBMCs was “also observed”. Further, in assay [1], the “blood glucose and insulin levels” value was “normalize blood glucose and insulin levels”; the “insulin sensitivity (HOMA-IR index)” value is recorded as “maintain insulin sensitivity”. Further, in assay [2], the “kidney function assessed by blood urea nitrogen levels” value is “ameliorate kidney function”. Also, the colon length result with DSS mouse model is “protect gut from shortening”. For the same compound, the EC50 in the assay on human Daudi cells is ~2 pM. The glucose uptake-increasing activity result in the assay on dog PBMCs is on record as “also observed”. Also, the weight gain entry in the assay on HFD mouse model is “reduce weight gain”. Further, in the assay with HFD mouse model (glucose 2 g/kg i.p.), the “glycaemia and insulin response after glucose challenge” value was “normalize glycaemia and insulin response”.

Source of the values: US20230357354A1, “CD38-BINDING CD31 PEPTIDES AND USES THEREOF” (ENCEFA, priority 2020, published 2023).
